# B1: endogenous STING (natural protein, human (endogenous in BJ-5ta), UniProt Q86WV6 1-379, looked up)
# chain: MPHSSLHPSIPCPRGHGAQKAALVLLSACLVTLWGLGEPPEHTLRYLVLHLASLQLGLLLNGVCSLAEELRHIHSRYRGSYWRTVRACLGCPLRRGALLLLSIYFYYSLPNAVGPPFTWMLALLGLSQALNILLGLKGLAPAEISAVCEKGNFNVAHGLAWSYYIGYLRLILPELQARIRTYNQHYNNLLRGAVSQRLYILLPLDCGVPDNLSMADPNIRFLDKLPQQTGDHAGIKDRVYSNSIYELLENGQRAGTCVLEYATPLQTLFAMSQYSQAGFSREDRLEQAKLFCRTLEDILADAPESQNNCRLIAYQEPADDSSFSLSQEVLRHLRQEEKEEVTVGSLKTSAVPSTSTMSQEPELLISGMEKPLPLRTDFS
# Biological target: the molecule itself
# Test: non-reducing denaturing western blot
protein,measurement,value
B1,stoichiometry N,2

# — paper PMC11019558 (Cell reports, 2024)
